Structures can show the parent of a compound that is named as a salt.
Molecular target: Renin (Homo sapiens, UniProt P00797)
Experiment: Inhibition of renin in human plasma by radioimmunoassay
Assay type: cell-free

Protein sequences, listed by entry. Tags and fused reporters are not part of them. Lines headed by an entry give the natural chain unless they say otherwise; changes in a name come on top.
UniProt P00797: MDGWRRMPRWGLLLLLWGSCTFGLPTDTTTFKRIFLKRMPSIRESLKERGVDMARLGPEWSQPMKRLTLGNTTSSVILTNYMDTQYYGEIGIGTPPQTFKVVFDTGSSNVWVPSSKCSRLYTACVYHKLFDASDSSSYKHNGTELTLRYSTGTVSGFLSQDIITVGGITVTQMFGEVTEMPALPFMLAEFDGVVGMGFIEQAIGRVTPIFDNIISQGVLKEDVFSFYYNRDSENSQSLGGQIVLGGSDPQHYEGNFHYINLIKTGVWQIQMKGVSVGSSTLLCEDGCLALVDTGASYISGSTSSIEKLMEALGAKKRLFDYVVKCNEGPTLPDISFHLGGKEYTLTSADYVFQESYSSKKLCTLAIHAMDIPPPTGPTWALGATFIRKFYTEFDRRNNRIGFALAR

`COCCCCn1c(C(=O)N(CC(C)C)[C@@H]2CNC[C@H](C(=O)N3CCOCC3)C2)nc2ccccc21` [IMARIKIREN HYDROCHLORIDE] showed an IC50 of 2.1 nM.

Reference: ChEMBL document CHEMBL3856290, “Discovery of TAK-272: A Novel, Potent, and Orally Active Renin Inhibitor” (ACS Med Chem Lett, 2016)
